High-throughput results (PubChem)
FN deposit inh = fibronectin deposition inhibition | hit rate 0.086% among 350,000 | inhibition, % at 12.6 µM | AH1F fibroblasts, Alexa488-fibronectin deposition fluorescence, overnight;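 active means mean inhibition across replicates of 30% or more, regardless of how many single replicates reach that level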;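 further: positive control wells lacked labelled fibronectin entirely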
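Assay system: AH1F fibroblasts assembling fluorescent fibronectin matrix; Amount: 10000 AH1F cells per well; Buffer or medium: DMEM, 2% serum; Probe or stimulus: Alexa488-fibronectin, 24 nM final in well; Doses: single compound dose, delivered by pin transfer; Incubation: 1 h adhesion, overnight exposure; Measured by: fluorescence 485/525 nm; Read-out: fibronectin deposition inhibition.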
HIV Env fusion = inhibitors of HIV Env-mediated cell fusion | inhibition, % at 12.3 µM | HeLa-JRFL Env/CEM21 cell fusion, luciferase | AID 651610 | hit rate 1.1% among 360,000;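 active means mean replicate inhibition score of at least 50 and every replicate individually at or above 50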;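 further: 0% = plate neutral controls and 100% = maraviroc near 300 nM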
miR122 inh = inhibitors of miR-122 in Huh7 cells | activation (reporter increase), % at 12.5 µM | Huh7 miR-122 Renilla luciferase sensor, 48 h; neutral wells = 0, positive control = 100 | hit rate 0.3% among 340,000;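 active means mean replicate activation score at least 90 and every replicate individually at or above 90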;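 further: higher luciferase means less miR-122 activity so hits act as miR-122 inhibitors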
PGC1a acetyl inh = lowers PGC1a acetylation signal in U2OS cells. AID 651687. inhibition, % at 15.6 µM. AlphaScreen anti-acetyl-lysine; with virally co-expressed GCN5 acetyltransferase. hit rate 0.17% among 350,000;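 active means every replicate shows inhibition of at least 40%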;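 further: 0% = neutral control wells and 100% = positive control wells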
Yeast UUG start = modulators of yeast start codon fidelity, primary screen, whole organism, S. cerevisiae, single point, plate reader | AID 602363, 2012 | actives 0.13% (n = 350,000) | activity score, % at 18.7 µM | S. cerevisiae UUG-firefly luciferase reporter, luminescence/redox ratio;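 active means replicate mean at a twofold rise or more, about +100% in these data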;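 further: firefly luciferase made from a UUG start codon reports start codon fidelity; reporter light over untreated wells divided by growth signal over untreated wells; some hits fall short of that in this replicate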
Cneo AK release = Cryptococcus neoformans lysis via adenylate kinase release | C. neoformans lysis, adenylate kinase release luminescence, 4 h; normalised: neutral wells 0, clomiphene wells 100 | lysis activity, % at 15 µM | hit rate 0.2% among 360,000 | AID 651654;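 active means mean lysis activity across replicates of at least 80%, whatever share of replicates individually reach that level; inactive means mean lysis activity below 80%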
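Schedule: static 4 h at 37 °C with compound, 1 h detection; system: C. neoformans cells; benchmarks: Clomiphene as positive control; buffer or medium: fresh YPD medium; measure: luminescence rise reflecting yeast cell lysis; measured by: luminescent adenylate kinase detection reagent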
* hit, by the source's call; . = no result given; [ ] = another dose, or the depositor's remark. Sampled rows, rich in hits. Any-hit rate of the full collection: about 1.5%.

nr | canonical_smiles | FN deposit inh | HIV Env fusion | miR122 inh
1 | CCC(=O)N1CCCc2cc(S(=O)(=O)N3CCN(c4ccccc4F)CC3)ccc21 | 3 | 41* | .
2 | CCCCNC(=S)N(C)/N=C/c1c(C)[nH]c2ccccc12 | -4 | 10 | .
3 | C=CCNS(=O)(=O)c1cccc2cc(C(=O)O)c(O)cc12 | 3 | -14 | 36
4 | COc1ccc(C(=O)Nc2ccc(-c3ccc(C)o3)cc2)cc1S(=O)(=O)N1CCOCC1 | -9 | 63* | -15
5 | O=C(NC1CCCCC1)C(c1ccccc1F)n1c(=O)c(-c2ccco2)nc2ccccc21 (stereo not given) | -13 | 59* | .
6 | O=C(NC1CCCCC1)C(c1ccnc2ccccc12)n1c(=O)c(-c2ccco2)nc2ccccc21 (stereo not given) | -6 | 10 | .
7 | COCc1c(C#N)c(NCc2cc(OC)c(OC)c(OC)c2)nc(C)c1[N+](=O)[O-] | 2 | 57* | .
8 | C[C@H](CO)N1C[C@H](C)[C@@H](CN(C)C(=O)Nc2cccc3ccccc23)Oc2ccc(NC(=O)Nc3ccc(C(F)(F)F)cc3)cc2CC1=O | . | -18[16.7 µM] | 31[16.7 µM]

nr | PGC1a acetyl inh | Yeast UUG start | Cneo AK release
1 | . | 12 | -1
2 | . | . | .
3 | 95* | -12 | 3
4 | -2 | -1 | 3
5 | . | . | .
6 | . | . | .
7 | . | . | .
8 | -9 | -10 | -5

The list goes on.
nr | canonical_smiles | FN deposit inh | HIV Env fusion | miR122 inh
9 | C[C@@H]1CN([C@@H](C)CO)C(=O)Cc2cc(NC(=O)Nc3ccc(C(F)(F)F)cc3)ccc2O[C@@H]1CN(C)C(=O)Nc1cccc2ccccc12 | . | -16[16.7 µM] | 265*[16.7 µM]
10 | C[C@@H]1CN([C@H](C)CO)C(=O)Cc2cc(NC(=O)Nc3ccc(C(F)(F)F)cc3)ccc2O[C@@H]1CN(C)C(=O)Nc1cccc2ccccc12 | . | 12[16.7 µM] | 112*[16.7 µM]
11 | CC(=O)N1C(=O)NC2=C(C(=O)CCC2)C1c1cccc([N+](=O)[O-])c1 (stereo not given) | -2 | 9 | 1
12 | CO[C@H]1CN(C)C(=O)c2ccc(NC(=O)c3ccccc3F)cc2OC[C@H](C)N(C)C[C@@H]1C | 3 | -3[16.7 µM] | -8[16.7 µM]
13 | CCCOc1ccc(C(F)(F)F)cc1NC(=O)CCc1c(C)noc1C | 1 | 98* | -9
14 | CCOc1ccc(NC(=O)CCc2c(C)noc2C)cc1OC | -1 | . | -5
15 | C1=CC2C3C=CC(C3)C2C1 (stereo not given) | . | . | -3
16 | COc1ccc(S(=O)(=O)N(C)C[C@@H]2Oc3ccc(N(C)C)cc3C(=O)N([C@H](C)CO)C[C@H]2C)cc1 | . | 15[16.7 µM] | -4[16.7 µM]

nr | PGC1a acetyl inh | Yeast UUG start | Cneo AK release
9 | -11 | -14 | -3
10 | 5 | -13 | -1
11 | 3 | . | .
12 | -4 | . | -2
13 | -3 | -6 | 0
14 | 9 | -13 | 0
15 | -1 | 0 | 2
16 | 3 | -3 | -5

A second format for part of the listing above:
[15] C1=CC2C3C=CC(C3)C2C1 (stereo not given)
  FN deposit inh: .
  HIV Env fusion: .
  miR122 inh: -3
  PGC1a acetyl inh: -1
  Yeast UUG start: 0
  Cneo AK release: 2
[10] C[C@@H]1CN([C@H](C)CO)C(=O)Cc2cc(NC(=O)Nc3ccc(C(F)(F)F)cc3)ccc2O[C@@H]1CN(C)C(=O)Nc1cccc2ccccc12
  FN deposit inh: .
  HIV Env fusion: 12[16.7 µM]
  miR122 inh: 112*[16.7 µM]
  PGC1a acetyl inh: 5
  Yeast UUG start: -13
  Cneo AK release: -1
[11] CC(=O)N1C(=O)NC2=C(C(=O)CCC2)C1c1cccc([N+](=O)[O-])c1 (stereo not given)
  FN deposit inh: -2
  HIV Env fusion: 9
  miR122 inh: 1
  PGC1a acetyl inh: 3
  Yeast UUG start: .
  Cneo AK release: .
[12] CO[C@H]1CN(C)C(=O)c2ccc(NC(=O)c3ccccc3F)cc2OC[C@H](C)N(C)C[C@@H]1C
  FN deposit inh: 3
  HIV Env fusion: -3[16.7 µM]
  miR122 inh: -8[16.7 µM]
  PGC1a acetyl inh: -4
  Yeast UUG start: .
  Cneo AK release: -2

The list goes on:
nr | canonical_smiles | FN deposit inh | HIV Env fusion | miR122 inh
17 | COc1ccc(S(=O)(=O)N(C)C[C@H]2Oc3ccc(N(C)C)cc3C(=O)N([C@H](C)CO)C[C@@H]2C)cc1 | . | 14[16.7 µM] | 112*[16.7 µM]
18 | C[C@@H]1CN([C@H](C)CO)C(=O)c2cc(N(C)C)ccc2O[C@@H]1CN(C)S(=O)(=O)c1ccc(Cl)cc1 | . | . | 98*[16.7 µM]
19 | COc1ccccc1/C=C/C1(C(=O)NC2CCCC2)CC(=O)N1c1ccc(C)cc1 (stereo not given) | -7 | -40 | 27
20 | COc1ccccc1/C=C/C1(C(=O)NC2CCCC2)CC(=O)N1c1ccc(F)cc1 (stereo not given) | . | 131* | -2
21 | C[C@H](NC(=O)c1ncn2c1c(=O)[nH]c1ccc(Br)cc12)c1ccccc1 | 2 | 57* | 2
22 | COC(=O)\C(C(C)=O)=C(/C=C/C=C/N(C)C)N(C)C | 4 | 9 | -5
23 | C/C(=N\NC(=O)c1ccc(Cn2cc([N+](=O)[O-])cn2)o1)c1cccc(NC(=O)c2cccnc2)c1 | 31* | 2 | -6
24 | CC(Oc1cccc(Cl)c1)C(=O)NNC(=O)c1cccnc1 (stereo not given) | 31* | -2 | .

nr | PGC1a acetyl inh | Yeast UUG start | Cneo AK release
17 | 9 | 5 | -2
18 | -4 | 4 | -3
19 | 2 | -9 | -1
20 | 0 | -13 | -1
21 | . | -13 | -1
22 | 5 | -1 | 0
23 | 13 | -5 | -7
24 | 2 | -13 | 1

Further structures
nr | canonical_smiles | FN deposit inh | HIV Env fusion | miR122 inh
25 | CNc1nnc(-c2ccc(N(C)C)cc2)s1 | -1 | -107 | -3
26 | CN(CCOc1ccccc1)C(=O)CCc1nc2sc3c(c2c(=O)[nH]1)CCCC3 | -19 | 8 | .
27 | COC(=O)c1c(NC(=O)CN2CCC3(O)CCCCC3C2c2cc(OC)ccc2OC)sc(C)c1C (stereo not given) | -5 | 91* | .
28 | Cc1cc2cc(CN(Cc3ccco3)S(=O)(=O)c3c(C)ccc4nsnc34)c(=O)[nH]c2cc1C | . | 77* | -2
29 | Cc1ccc(N2C(=O)CC(c3ccsc3)C3=C2CC(C)(C)CC3=O)cc1 (stereo not given) | -1 | 107* | 50
30 | CC1(C)CC(=O)C2=C(C1)N(c1ccc(F)cc1)C(=O)CC2c1ccsc1 (stereo not given) | 11 | 21 | 2
31 | CN1c2ccc(-c3ccc(F)cc3)cc2[C@H]2[C@H](CCN2C(=O)Cc2ccccn2)[C@H]1CO | 9 | . | 0[16.7 µM]
32 | CCOC(=O)CNC(=O)OC1CCN2Cc3ccccc3N=C12 (stereo not given) | -3 | -6 | -6

nr | PGC1a acetyl inh | Yeast UUG start | Cneo AK release
25 | 1 | -55 | -3
26 | 5 | -6 | 0
27 | . | . | .
28 | 2 | -13 | -1
29 | -15 | -11 | -2
30 | -2 | -30 | -1
31 | 14 | 11 | 0
32 | 78* | -13 | 1

Continued:
nr | canonical_smiles | FN deposit inh | HIV Env fusion | miR122 inh
33 | CCOC(=O)CNC(=O)c1sc2ncnc(N3CCc4ccccc4C3)c2c1C | . | . | 1
34 | Cc1ccc(S(=O)(=O)N(C)C[C@H]2Oc3c(NC(=O)Nc4cccc5ccccc45)cccc3C(=O)N([C@@H](C)CO)C[C@@H]2C)cc1 | 13 | -24 | -13[16.7 µM]
35 | CO[C@H](CN(C)Cc1ccc2c(c1)OCO2)[C@@H](C)CN(C(=O)c1ccccc1)[C@@H](C)CO | -1 | . | .
36 | Nc1nc(Nc2cccc(Cl)c2)nc(NCc2ccco2)c1[N+](=O)[O-] | 4 | 76* | .
37 | Cc1cccc(Nc2nc(N)c([N+](=O)[O-])c(NCc3ccco3)n2)c1 | 14 | . | -19
38 | Nc1nc(Nc2ccc(Cl)cc2)nc(NCc2ccco2)c1[N+](=O)[O-] | -1 | 59* | 1
39 | O=C(N(Cc1ccccc1)c1ccccn1)C12CC3CC(CC(C3)C1)C2 | -2 | 122* | 4
40 | O=C(Nc1ccc(Cl)cc1)Nc1nnc(-c2ccncc2)s1 | 6 | 28 | 3

nr | PGC1a acetyl inh | Yeast UUG start | Cneo AK release
33 | 1 | 0 | 2
34 | -15 | -12 | -1
35 | 1 | . | 104*
36 | . | . | .
37 | . | -16 | -25
38 | 6 | 8 | -6
39 | . | -12 | -1
40 | 0 | -13 | 6

Remaining list, next part:
nr | canonical_smiles | FN deposit inh | HIV Env fusion | miR122 inh
41 | Cc1cccc(C)c1NC(=O)Nc1nc(C(N)c2ccccc2Cl)cs1 (stereo not given) | -3 | -30 | -1
42 | O=C(Nc1cccc(Cl)c1)Nc1nnc(-c2ccncc2)s1 | -8 | 57* | .
43 | NC(c1csc(NC(=O)Nc2cccc(Cl)c2)n1)c1ccccc1Cl (stereo not given) | 7 | 76* | 53
44 | CC(C)c1ccc2oc(=O)cc(CN3CCOCC3)c2c1 | -1 | -3 | 2

nr | PGC1a acetyl inh | Yeast UUG start | Cneo AK release
41 | . | -13 | -1
42 | . | . | .
43 | -12 | -9 | 8
44 | 20 | -11 | 21
